# Test results reported in patent US4604239A, “Antibiotics” (Eli Lilly and Company, priority 1985, dated 1986).
# Key:
# Format in all cases: cell-based
# [1] = test system: Peptostreptococcus anaerobius; assay: agar-dilution MIC; settings: Ps. anaerobius 8; Table 15
# Description: The MIC values were determined by the agar-dilution method, and are recorded in Table 15, which follows.
# Staphylococcus aureus = assay: agar-dilution MIC
# Clostridium difficile = Clostridium difficile A-280; Table 16
# Description: The A41030 antibiotic factors A, B, C, D, E, F, and G, are also active against a number of strains of Clostridium difficile, as determined by the agar-dilution method.
# [2] = Staphylococcus aureus S13E, Table 17
Substance,MIC [1] [µg/mL],MIC (Staphylococcus aureus; [2]) [µg/mL],MIC (Staphylococcus aureus; in µg/mL),MIC (Clostridium difficile) [µg/mL]
A41030 factor C,0.5,0.5,–,–
A41030 factor G,–,1,0.5,1.0
